Assay results published in patent publication US20190153419.

Assays:
PAR-1 = PAR-1 (UniProt P25116)
fibrinogen = fibrinogen (UniProt P02671)
protein C = protein C (UniProt P04070)

Substance | PAR-1 (kcat/Km) (PAR-1) | Fibrinogen (FpA) (kcat/Km) (fibrinogen) | PC Activation (kcat/Km) (protein C) | PC Activation + TM (kcat/Km, with exogenous thrombomodulin) (protein C)
Thrombin | 3e+07 M⁻¹ s⁻¹ | 1.7e+07 M⁻¹ s⁻¹ | 103 M⁻¹ s⁻¹ | 220000 M⁻¹ s⁻¹
W215A/E217A thrombin | 26000 M⁻¹ s⁻¹ | 890 M⁻¹ s⁻¹ | 0.01 M⁻¹ s⁻¹ | 12000 M⁻¹ s⁻¹
